Assay results: patent publication US10807956B2, “Histone demethylase inhibitors” (CELGENE QUANTICEL RESEARCH, INC., priority 2012, dated 2020)

Tested on: KYSE-150 esophageal carcinoma cell line
Experiment: Cell proliferation assay via BrdU incorporation (ELISA)
Assay type: cell-based, human
Settings: KYSE-150 cells, BrdU incorporation after 168 hr compound incubation; read-out: Cellular IC50

IC50: 1 to 10 µM
Substance: 3-{[(6-chloro-1-hydroxy-1,2,3,4-tetrahydronaphthalen-1- yl)methyl]amino}pyridine-4-carboxylic acid [Example 67]
